Molecular target: PDE2A (Homo sapiens, UniProt O00408)
Assay: PDE 2A assay with fluorescent substrate (IMAP, fluorescence polarization)
Format: biochemical
Conditions: read-out: PDE2 IC50

Amino acid sequences for entries named in this document (tags omitted).
UniProt O00408, whole entry, species assumed: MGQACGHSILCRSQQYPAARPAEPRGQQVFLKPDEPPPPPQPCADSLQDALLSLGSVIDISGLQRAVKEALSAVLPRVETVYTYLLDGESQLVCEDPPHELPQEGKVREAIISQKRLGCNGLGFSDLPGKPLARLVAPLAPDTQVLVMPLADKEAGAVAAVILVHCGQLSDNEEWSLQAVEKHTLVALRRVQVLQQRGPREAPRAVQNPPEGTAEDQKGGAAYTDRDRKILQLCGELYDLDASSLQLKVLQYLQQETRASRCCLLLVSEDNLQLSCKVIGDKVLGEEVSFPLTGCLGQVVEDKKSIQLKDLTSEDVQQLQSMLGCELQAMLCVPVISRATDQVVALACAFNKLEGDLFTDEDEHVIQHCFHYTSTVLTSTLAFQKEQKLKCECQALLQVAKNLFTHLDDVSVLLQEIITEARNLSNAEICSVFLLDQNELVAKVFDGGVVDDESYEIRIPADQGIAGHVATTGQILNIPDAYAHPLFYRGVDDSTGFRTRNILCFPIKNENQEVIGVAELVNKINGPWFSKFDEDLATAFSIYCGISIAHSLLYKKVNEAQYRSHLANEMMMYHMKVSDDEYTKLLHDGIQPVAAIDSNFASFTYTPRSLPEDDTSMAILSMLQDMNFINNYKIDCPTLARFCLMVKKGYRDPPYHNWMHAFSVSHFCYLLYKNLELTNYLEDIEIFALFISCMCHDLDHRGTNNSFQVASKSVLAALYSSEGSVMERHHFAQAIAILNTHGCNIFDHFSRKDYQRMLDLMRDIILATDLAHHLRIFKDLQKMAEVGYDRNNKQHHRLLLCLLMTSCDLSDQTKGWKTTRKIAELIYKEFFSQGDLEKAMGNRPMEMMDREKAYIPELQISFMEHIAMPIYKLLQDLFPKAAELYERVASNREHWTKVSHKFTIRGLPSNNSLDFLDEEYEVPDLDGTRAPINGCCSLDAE

| Structure (SMILES) | IC50 |
| --- | --- |
| Cc1nc2ccc(C3CC3)nc2n2c(-c3cc(OC4COCC4O)ccc3Cl)nnc12 (single isomer, unassigned) [Example 58c] | 37 nM |
| Cc1nc2ccc(C3CC3)nc2n2c(-c3cc(OC4COCC4O)ccc3Cl)nnc12 (single isomer, unassigned) [Example 58b] | 45 nM |

Source: patent US20140045856A1, “4-Methyl-2,3,5,9,9b-pentaaza-cyclopenta[a]naphthalenes” (BOEHRINGER INGELHEIM INTERNATIONAL GMBH, priority 2012, published 2014)
